Results reported in patent publication US5792851A, “Human prostaglandin transporter” (Albert Einstin College of Medicine of Yeshiva University, a …, priority 1996, dated 1998).

Target: human prostaglandin transporter (hPGT) (Homo sapiens, UniProt Q92959)
Experiment: Inhibition of hPGT-mediated tracer PGE2 uptake in transfected HeLa cells
Assay type: cell-based
Conditions: 0.1 µM

CCCCC[C@H](O)/C=C/[C@H]1[C@H](O)CC(=O)[C@@H]1C/C=C\CCCC(=O)O [PGE2]
percent of the control 10-min tracer PGE2 uptake: 45.2 ± 1.4
